Measurements: US7803377B2, “Anti-DLL4 antibodies and methods using same” (Genentech, Inc., priority 2006, dated 2010)

Amino acid sequences for entries named in this document (tags omitted). Residues count along the entry.
UniProt Q9NR61, 27-404: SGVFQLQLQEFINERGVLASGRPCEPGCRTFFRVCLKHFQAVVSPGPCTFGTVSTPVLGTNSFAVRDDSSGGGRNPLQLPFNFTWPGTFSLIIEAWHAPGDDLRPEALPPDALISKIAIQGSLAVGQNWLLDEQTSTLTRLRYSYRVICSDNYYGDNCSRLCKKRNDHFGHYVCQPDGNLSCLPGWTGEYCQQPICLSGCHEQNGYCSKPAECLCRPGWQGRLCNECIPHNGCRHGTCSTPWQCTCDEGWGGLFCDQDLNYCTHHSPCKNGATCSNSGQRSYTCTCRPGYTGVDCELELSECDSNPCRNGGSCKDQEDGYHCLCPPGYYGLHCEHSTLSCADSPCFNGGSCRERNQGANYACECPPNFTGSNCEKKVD

Columns and labels:
[1] = target: T1, human Delta4 (ECD5.5) (Homo sapiens, UniProt Q9NR61); test: Surface plasmon resonance (BIAcore-3000) binding affinity and kinetics; conditions: human DLL4-His; Kd calculated as koff/kon
T1 construct: DLL4-His (C-terminal His-tagged human DLL4, amino acid 1-404); His (C)
Method: To determine the binding affinity of the anti-DLL4 Mabs, surface plasmon resonance (SRP) measurement with a BIAcore™-3000 was used (BIAcore, Inc., Piscataway, N.J.). Briefly, carboxymethylated dextran biosensor chips (CM5, BIAcore Inc.) were activated with N-ethyl-N′-(3-dimethylaminopropyl)-carbodiimide hydrochloride (EDC) and N-hydroxysuccinimide (NHS) according to the supplier's instructions. Anti-DLL4 antibody was diluted with 10 mM sodium acetate, pH 4.8, into 5 μg/ml before injection at a flow rate of 5 μl/minute to achieve approximately 500 response units (RU) of coupled antibody. Next, IM ethanolamine was injected to block unreacted groups. For kinetics measurements, two-fold serial dilutions of either human or murine DLL4-His molecules (0.7 nM to 500 nM) were injected in PBS with 0.05% Tween™ 20 at 25° C. at a flow rate of 25 μl/min. Association rates (kon) and dissociation rates (koff) were calculated using a simple one-to-one Langmuir binding model (BIAcore Evaluation Software version 3.2). The equilibrium dissociation constant (Kd) was calculated as the ratio koff/kon.

[2] = target: DLL4 (Homo sapiens, UniProt Q9NR61); test: Notch ligand: Notch blocking ELISA (DLL4-AP / DLL4-His binding to coated rNotch1); design: amino acid 1-404 of DLL4 fused to human placenta alkaline phosphatase; made in house; host or cells: 293 cells, conditioned medium (DLL4-AP); conditions: DLL4-AP conditioned medium; rrNotch1-Fc coated at 0.5 μg/ml; read-out: calculated IC50, blocking the binding of DLL4-AP to coated rNotch1
Method: Notch ligand: Notch blocking ELISA. 96-well microtiter plates were coated with recombinant rat Notch1-Fc (rrNotch1-Fc, R&D Systems) at 0.5 μg/ml. Conditioned medium containing DLL4-AP (amino acid 1-404 of DLL4 fused to human placenta alkaline phosphatase) was used in the assay. To prepare conditioned medium, 293 cells were transiently transfected with plasmid expressing DLL4-AP with Fugen6 reagent (Roche Molecular Biochemicals). Five days posttransfection, the conditioned medium was harvested, filtered and stored at 4° C. Purified antibodies titrated from 0.15 to 25 μg/ml were preincubated for 1 hr at room temperature with DLL4-AP conditioned medium at a dilution that conferred 50% maximally achievable binding to coated rrNotch1-Fc. The antibody/DLL4-AP mixture was then added to rrNotch1-Fc coated plate for 1 hr at room temperature, after which plates were washed several times in PBS. The bound DLL4-AP was detected using 1-Step PNPP (Pierce) as substrate and OD 405 nm absorbance measurement. Identical assay was performed with DLL1-AP (human DLL1, amino acid 1-445). […] The bound His-tagged ligands was detected with mouse anti-His mAb (1 μg/ml, Roche Molecular Biochemicals), biotinylated goat-anti-mouse (Jackson ImmunoResearch) and Streptavidin-AP (Jackson ImmunoResearch).

For “YW26.82: affinity matured anti-DLL4 monoclonal antibody; HVR-H1/H2/H3 SEQ ID NO:1, 8, 9; HVR-L1/L2/L3 SEQ ID NO:10, 11, 18”, the Kd [1] was 0.15 nM and the IC50 [2] was roughly 12 nM.
